This note sets out measurements from paper PMC3124771 (Journal of immunology (Baltimore, Md. : 1950), 2011).

The assay relates to HPV specific T-cell lines. Briefly: IFN-γ cytokine capture assay after IL-2 pretreatment. It counts as cell-based, human. Conditions: IL-2 40 U/ml overnight, average.

Turning to “IL-2: exogenous IL-2 (40 U/ml) added to HPV specific T cell lines”, the “Fold increase in IFN-γ secretion after pretreatment with exogenous IL-2” value (HPV specific T cell lines from RRP patients (4 cell lines)) turned out to be 2 fold and the “Fold increase in IFN-γ secretion after pretreatment with exogenous IL-2” value (HPV specific T cell lines from healthy subjects (4 cell lines)) came out at 1 fold.
